Patent US20050175695A1, “Carvedilol free base, salts, anhydrous forms or solvates thereof, corresponding pharmaceutical compositions, controlled release formulations, and treatment or delivery methods” (priority 2003, published 2005)
Counter-ions that a name gives are not always drawn.

How the values were obtained:
[1] = Aqueous solubility at 25° C. of carvedilol free base and three salts (Table 13); type: physicochemical
[2] = Solubility in water of carvedilol free base and monocitrate salt over time (Table 11); type: physicochemical; settings: 25° C., 48 hr

Compound	pH of the solution ([1]; 24 hr)	pH of the solution ([1]; 1 hr)	pH of the solution ([1]; 4 hr)	pH of the solution ([1]; 24 hr, HBr)	pH of the filtered solution [2]
COc1ccccc1OCCNCC(O)COc1cccc2[nH]c3ccccc3c12 (centres unmarked) [Carvedilol Free Base]	(pH = 7.0)				
COc1ccccc1OCCNCC(O)COc1cccc2[nH]c3ccccc3c12 (centres unmarked) [HBr salt, Carvedilol HBr]		6.1	6.3	6.2	
COc1ccccc1OCCNCC(O)COc1cccc2[nH]c3ccccc3c12.O=P(O)(O)O (centres unmarked) [Phosphate salt, carvedilol phosphate]	3.0	3.0	3.0		
Carvedilol Monocitrate Monohydrate [Carvedilol Mono-Citrate Salt]					3.0
